Experimental data taken from patent publication US20260055202A1 (TEXAS A AND M UNIVERSITY SYSTEM, published 2026).

Target: T1, human CD20 on Raji B lymphoma cells (human, UniProt P11836 1-297)
T1 construct: whole, on cells; also called hCD20
T1 sequence (looked up): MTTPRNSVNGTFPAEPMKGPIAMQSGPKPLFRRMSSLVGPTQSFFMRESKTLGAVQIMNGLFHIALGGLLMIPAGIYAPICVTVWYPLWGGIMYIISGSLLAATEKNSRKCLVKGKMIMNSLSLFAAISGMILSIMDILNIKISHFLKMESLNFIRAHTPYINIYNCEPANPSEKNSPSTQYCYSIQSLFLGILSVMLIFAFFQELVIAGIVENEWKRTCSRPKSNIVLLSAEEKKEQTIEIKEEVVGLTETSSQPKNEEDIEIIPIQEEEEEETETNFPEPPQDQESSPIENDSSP
Assay: flow cytometry on Raji cells (binding/hCD20 receptor occupancy), A488-labeled secondary anti-human IgG Fcγ Ab, MFI against concentration, 5PL fit
Experimental: The experiment was carried out by detection of bound unlabeled anti-hCD20 Abs using A488-labeled secondary anti-human IgG Fcγ Ab. Median fluorescence values from flow cytometry were obtained using FlowJo software. EC₅₀ values were generated from an asymmetric sigmoidal 5PL fit using GraphPad Prism. Data are from one of two independent, representative experiments. […] All statistical analyses were by unpaired t test.

B1: Obinutuzumab (humanized, afucosylated) (antibody, V domains shown)
VH: QVQLVQSGAEVKKPGSSVKVSCKASGYAFSYSWINWVRQAPGQGLEWMGRIFPGDGDTDYNGKFKGRVTITADKSTSTAYMELSSLRSEDTAVYYCARNVFDGYWLVYWGQGTLVTVSS
VL: DIVMTQTPLSLPVTPGEPASISCRSSKSLLHSNGITYLYWYLQKPGQSPQLLIYQMSNLVSGVPDRFSGSGSGTDFTLKISRVEAEDVGVYYCAQNLELPYTFGGGTKVEIK
  EC50: 2.7 µg/mL
